The values below come from patent US8507488B2, “Fused nitrogen containing heterocycles and compositions thereof as kinase inhibitors” (IRM LLC, priority 2008, dated 2013).

Amino acid sequences for entries named in this document (tags omitted). Residues count along the entry.
UniProt Q16620, 538-822 limits assumed: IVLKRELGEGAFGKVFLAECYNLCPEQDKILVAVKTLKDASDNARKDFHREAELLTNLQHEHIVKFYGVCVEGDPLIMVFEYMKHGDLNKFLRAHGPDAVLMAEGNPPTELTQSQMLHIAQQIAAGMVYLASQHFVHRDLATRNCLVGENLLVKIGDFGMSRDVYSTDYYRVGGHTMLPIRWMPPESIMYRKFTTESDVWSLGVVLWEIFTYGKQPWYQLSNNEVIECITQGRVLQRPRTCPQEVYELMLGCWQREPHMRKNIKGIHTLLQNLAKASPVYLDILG

In the test the target is T1, Tel-TrkB (Homo sapiens, UniProt Q16620).
T1 construct: dimerization domain of Tel (ETV6) transcription factor (fusion partner, human ETV6 P41212); expressed in transfected cells; host or cells: luciferase expressing Ba/F3 murine hematopoietic progenitor cells; the other entry of the earlier key: ETV6 (P41212, Transcription factor ETV6)
Nature of the test: Inhibition of proliferation of Ba/F3 cells expressing Tel-TrkB (BaF3/Tel-TrkB). Type of test: cell-based. The conditions noted are these: read-out: Ba/F3 Tel-TrkB IC 50. As to the method: Test compounds were dissolved in DMSO (10 mM) and transferred into 1.4 mL flat bottom or V-shaped Matrix tubes carrying a unique 2D matrix chip by individual compound hubs. The numbers of these chips were distinctively linked to the individual compound identification numbers. The stock solutions were stored at −20° C. if not used immediately. For the test procedure the vials were defrosted and identified by a scanner whereby a working sheet is generated that guides the subsequent working steps.
Compound dilutions were made in 384 well plates. This format enabled the assay of maximally 28 individual test compounds at 12 concentrations (single points) including 2 reference compounds. […]
Compounds of Formula (I) were tested for their antiproliferative effect on Ba/F3 cells expressing either Tel-TrkA, Tel-TrkB or Tel-TrkC and an additional panel of 34 selected diverse kinases activated by fusion to the dimerizing partners Bcr or Tel (Abl, A1K, BMX, EphA3, EphB2, FGFR2, FGFR3, FGFR4, FGR, FLT1, FLT3, FLT4, FMS, IGF1R, InsR, JAK1, JAK2, JAK3, KDR, Kit, Lck, Lyn, MER, MET, PDGFRb, RET, RON, Ros-1, Src, Aurora, TIE2, TYK2, Tie1, ZAP70). […] The IC50 values of the compounds the different cell lines were determined from dose response curves. […]

On to `N#Cc1ccc(-c2cnc3ccc(N4CCOCC4c4cccc(F)c4)nn23)cc1` (stereo not shown) [Table 2-Compound 1], for which the IC50 amounted to 5.5 nM.
